This is an account of results in ChEMBL document CHEMBL4339250, “Polycerasoidol, a Natural Prenylated Benzopyran with a Dual PPARα/PPARγ Agonist Activity and Anti-inflammatory Effect” (J Nat Prod, 2019).

For the experiment, the system named is HUVEC. Description: Anti-inflammatory activity in HUVEC assessed as reduction in TNFalpha-stimulated neutrophil-HUVEC interactions by measuring decrease in mononuclear leukocyte to endothelial cells pretreated for 20 hrs before TNFalpha stimulation for 24 hrs using freshly isolated mononuclear leukocytes perfused over endothelial monolayers for 5 mins by phase contrast microscopy. The experiment is classed as functional, cell-based. The following applies: Homo sapiens.

As for `C/C(=C\CC[C@]1(C)CCc2cc(O)cc(C)c2O1)CC/C=C(\C)C(=O)O`, the inhibition entry was “Dose-dependent effect”.
